The IC50 is the point on the concentration scale where inhibition reaches its midpoint.

The chains behind the UniProt entries cited, without tags or fusion partners. Where a name states a change or a piece, a line headed by the entry shows the natural chain unless it says otherwise.
UniProt P41968: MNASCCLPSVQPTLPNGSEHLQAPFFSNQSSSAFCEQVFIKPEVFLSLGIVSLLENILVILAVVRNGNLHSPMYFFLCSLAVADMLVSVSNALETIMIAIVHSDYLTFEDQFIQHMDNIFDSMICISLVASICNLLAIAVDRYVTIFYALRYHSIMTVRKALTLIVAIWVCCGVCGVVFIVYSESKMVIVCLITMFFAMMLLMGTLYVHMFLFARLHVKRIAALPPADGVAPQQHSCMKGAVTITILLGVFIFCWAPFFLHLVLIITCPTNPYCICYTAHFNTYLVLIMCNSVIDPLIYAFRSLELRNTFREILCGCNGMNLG

Among the data in patent publication US6303749A, “Agouti and agouti-related peptide analogs” (Amgen Inc., priority 1999, dated 2001) are IC50 values, retold here.

The assay deals with T1, human melanocortin-3 (MC-3) receptors (Homo sapiens, UniProt P41968).
T1 construct: expressed in transfected cells; membrane fraction used
The experiment in a line: Melanocortin receptor binding assay, 125I-NDP-alpha-MSH competition, MC-3. The settings on record: HEK 293 cell membranes; about […] 125I-NDP-α-MSH; 180 minutes at 25 C; read-out: hMC3 IC50 (nM) 125I NDP-MSH. Here is the method:
Human embryonic kidney (HEK) 293 cells stably expressing human melanocortin-3 (MC-3) or human melanocortin-4 (MC-4) receptors were used for ^125 I-[Nle4,dPhe7]α-melanocte stimulating hormone (NDP-α-MSH) and ^125 I-AGRP radioligand binding studies.
For ^125 I-NDP-α-MSH binding, cells were collected in phosphate buffered saline (PBS) and homogenized in Buffer A containing about 25 mM HEPES and about 0.32 M sucrose (pH 7.4), after which the homogenate was spun at 48,000×g for 12 minutes. The resulting pellet, which contained the cell membrane fraction, was resuspended in Buffer B containing about 25 mM HEPES, Modified Eagle's medium (without phenol red), about 0.1 percent bovine serum albumin (BSA), about 0.1 mg/ml soybean trypsin inhibitor (STI) and about 0.1 mg/ml 4-(2-aminoethyl)-benzenesulfonyl fluoride (AEBSF) (pH 7.4), and spun at 48,000×g for 12 minutes. This step was repeated one additional time, and the final pellet was resuspended in Buffer B to a concentration of about 4 mg wet weight of cell membrane per ml.
The binding reaction was initiated by the addition of cell membrane extract (about 50 μl) to wells containing about 0.15 nM ^125 I-NDP-α-MSH (2000 Ci/mmole, Amersham, Arlington Heights, Ill.) and varying concentrations of unlabeled AGRP/ASP peptides. The final assay volume was 100 μl. […] Radioactivity was quantified using a Packard TopCount. […]

For the substance “Cys-Abu-Asp-Pro-Cys-Ala-Thr-Abu-Tyr-Cys-Arg-Phe-Phe-Asn-Ala-Phe-Cys-Tyr-Cys-Arg-Lys-Leu-Gly-Thr-Ala-Met-Asn-Pro-Cys-Ser-Arg-Thr [SEQ ID NO:8]”, the IC50 is over 1000 nM.
